This is an account of results in ChEMBL document CHEMBL1759940, “Synthesis and anticonvulsant activity of 8-alkoxy-5,6-dihydro-4H-[1,2,4]triazolo[4,3-a][1]benzazepin-1-one derivatives” (Eur J Med Chem, 2011).

This assay is filed under the species Mus musculus. As to the kind of experiment: Protective index, ratio of TD50 for Swiss mouse to ED50 for Swiss mouse by maximal electroshock-induced seizures test. The format is functional. An outline of the steps: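 Protective index was calculated as TD50 (rotarod neurotoxicity) divided by ED50 (MES protection). Both values came from i.p. dosing in Swiss mice, using groups of 10 per dose, and were computed by the trimmed Spearman-Karber method.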
(Protection in the maximal electroshock model is a classic sign of anticonvulsant action.)

Turning to `NC(=O)N1c2ccccc2C=Cc2ccccc21` [CARBAMAZEPINE], the PI is 8.1.
